Antibody variant affinities, Ab-14 light chain, assay B

Values reported by Li et al. 2023, doi:10.1038/s41467-023-39022-2 (FLAb copy).

Target: peptide PDVDLGDISGINAS, taken from heptad repeat 2 (HR2) of SARS-CoV-2 spike.

Ab-14 is the parent antibody, in scFv form: VH, then three GGGGS repeats, then VL. The heavy chain is unchanged in all variants.
VH: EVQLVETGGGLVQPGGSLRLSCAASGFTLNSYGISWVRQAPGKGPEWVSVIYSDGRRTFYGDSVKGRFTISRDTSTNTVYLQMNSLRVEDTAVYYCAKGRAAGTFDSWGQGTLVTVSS
VL: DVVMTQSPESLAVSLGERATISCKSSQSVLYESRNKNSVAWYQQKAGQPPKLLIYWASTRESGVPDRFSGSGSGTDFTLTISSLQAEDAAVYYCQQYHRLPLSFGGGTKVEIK

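The starting antibody came from a phage panning campaign against this peptide. These sequences belong to a second round, designed from the earlier measurements on random variants of the parent. Group labels follow the data file (Ctrl: baseline library sampled from a position-specific scoring matrix, with some repeated check sequences; En: ensemble of fine-tuned language models; GP: Gaussian process model; GPLM: also part of the Gaussian process libraries; HC: hill climbing; Gen: genetic algorithm; Gibbs: Gibbs sampling; a sequence that several methods proposed may carry one label only). AlphaSeq pools MATa yeast showing the antibodies with MATalpha yeast showing the peptide. Binding brings cells together so that they mate, and sequencing counts the barcode pairs among the diploids. Scores were corrected for input abundance and mapped to Kd with protein pairs of known affinity run in the same pool. The assay was run in six technical replicates.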

The parent's light chain CDRs are KSSQSVLYESRNKNSVA, WASTRES, QQYHRLPLS; each variant's own CDRs replace them letter for letter.
Scale: log10 of Kd in nM, estimated from mating counts; low values are strong binders.
Averages over replicates are reported, and they cover detected replicates only.
"nd" marks a missing value. The strain was present, yet no cells mated with the target were sequenced in any replicate, which points to weak or no binding.
In the paper, a design with two or fewer of six values counts as a poor binder.
Nonspecific signal, from three strains lacking the peptide, appeared in 4% of pairings of all light chain designs, centred on 2.64 (5% of these signals below 1.59); values are not corrected for it.
Where one sequence has several entries in the source, the replicates are pooled.
Values of this round are not directly comparable with the first-round values of the same sequences.

CDR-L1,CDR-L2,CDR-L3,group,"mean, log10 nM",seen in
MISQSFLIGSRAKNNVA,QTSTRES,QQYDRLPLS,En_HC,-0.27,6/6
KLQQSTLYESRNKNSVA,NASTRES,QQYHRLPLS,GP_Gen,0.19,6/6
KISQQWLYESRNKNSVA,NASTRES,QQYHRLPLS,GP_Gen,-0.23,6/6
KSSQSVLNESMNKNSVA,WASTRES,QQYHRLPLS,Ctrl,1.56,6/6
TISQSFLMENQFKNSVA,QASTREA,QCYDRLPLS,En_HC,0.62,6/6
KLLQSVLYESRNKNSVA,HASTRED,QQYHQLPLS,GP_HC,0.22,6/6
KSSQSVLYESRNKNSVA,MASTRES,QQYHRLPPS,Ctrl,nd,0/6
HMNTADVGVSDHYNSVA,EQREAGI,QQYFRLPLS,En_Gibbs,1.27,6/6
QITNQTAGIMNGIDSIA,EETNLTT,QQYGHLPLS,En_Gibbs,nd,0/6
KSYISQLYESRNKNSVA,EASTRES,QQYHRLPLM,GP_HC,0.18,6/6
KISINQMHEYKMRSNIA,NTSQKAM,QQYFHLPLM,En_Gibbs,0.80,6/6
KISMVAGHMSMSKNNVA,EMVTREN,QQYDRLPLS,En_Gen,1.41,6/6
TLYMGPTEARDDKHAIA,NMNERDY,QQYHRLPLV,En_Gibbs,0.90,6/6
KLSLVLGVSKQSEKNIA,NTRLKVA,QQYDRLPLT,En_Gibbs,1.59,5/6
KIMQSLNYMQFNVSNVA,GQETRER,QSYHRLPLS,En_HC,2.33,6/6
ILSQSVLMGMHTKNSVA,QATMRFN,QQYHRLPLI,En_HC,1.92,6/6
KVSQSELYHSRNKNSVA,WASTRES,QQYHRLPLS,Ctrl,1.68,6/6
QFHSHMAGDQRIDHSIA,NATWAVP,QQYFRLPLS,En_Gibbs,0.72,6/6
KLMMQMQEIGIMKNNIA,NLEIGAR,QQYAQLPLV,En_Gibbs,nd,0/6
KDDQSVGYESRWSNSVA,RASTRES,QGYHRLPLS,Ctrl,nd,0/6
KSNQSVLYESRNKNNVA,AASTRES,QQYHRLPLS,Ctrl,1.25,5/6
KLSATYRFESNNKSNIA,EMTTRES,QCYHRLPLS,En_HC,2.16,2/6
SLMQVGGYESNDKNSIA,DLRTRES,QQYHRLPLS,En_HC,0.95,6/6
QIYQAMHTLSQKKNNVA,DVNERGQ,QQYFRLPLS,En_Gen,0.00,6/6
KVSQSFLYESRNVNSVA,GASTRES,QQYHRLPLS,GP_HC,-0.19,6/6
NISHFMDVTAKNINNVA,EMTMREA,QQYHHLPLS,En_Gen,0.72,6/6
MFSQLVYTGSRTKNAVA,QASTREN,QQYHRLPLS,En_HC,0.54,6/6
HVELGTGGVQKYDSSVA,HASQRQE,QQYYQLPLT,En_Gibbs,0.34,6/6
VLAMSSYGKSRHDSNIA,GANMLSQ,QQYARLPFA,En_Gibbs,0.83,6/6
KVSMFMRGLTQRKDSIA,DNNTRSN,QQYDRLPLS,En_Gen,0.08,6/6
KSDFSEPGESRNKNSVA,DASTRMS,QQYHRLPLS,GP_Gibbs,-0.04,6/6
KLRQSILYESRNKNSVA,NASTRES,QIYHRLPLS,GP_HC,0.25,6/6
KLSQSVLYESRMKNSVA,NASTRMM,QQYHRLPLS,GP_Gen,-0.24,6/6
KSSQSVLYESRNQNSVA,WASGRES,QQYHRLPLS,Ctrl,nd,0/6
KMSQSMGYGERNKNSVA,HASQRMS,QQYHRLPLS,GP_Gibbs,0.43,6/6
KLYMSTGYESRNEDSIA,DNSTRGR,QQYHRLPLS,En_HC,0.42,4/6
KISQMSTIESIQHNSVA,QTSTREK,QQYDRLPLS,En_HC,0.81,6/6
QMTHPEESFQNNQRSIA,NASASLD,QQYAQLPLM,En_Gibbs,1.14,6/6
KYSQSMLYESRNFNNVA,EASTRES,QQYHRLPLS,GP_Gibbs,0.90,6/6
KSSQDVLYESRNKNSVA,WAKTRES,QQYHILILD,Ctrl,nd,0/6
KISQMVKVGMTHGNSIA,EEQTRAK,QQYHRLPLA,En_Gen,0.95,6/6
KSSQSVLYESENKNSVA,EASQRES,QQYHRLPLS,GP_HC,0.54,6/6
IVSQLMLWGMHAKNSIA,EAEMRTN,QQYDRLPLF,En_Gen,1.20,1/6
KFPQEVWYQSRNKNSVA,DASTREQ,QQYHRLPLS,GP_Gibbs,0.03,6/6
HLSQSVLYESRNKNSVA,NASQRES,QQYHRLPLS,GP_Gen,0.31,6/6
KLSQSDLYESRMKNSVA,HASTRES,QQYHRLPLS,GP_Gen,0.07,6/6
KSSQSVLYESMNKNSVA,GASTRES,QQYHRLPLS,Ctrl+GPLM_HC,0.18,12/12
MLSDLVKQGSRNTNSVA,DNSTRGS,QQYDRLPLS,En_HC,1.79,4/6
KLSGLMASSKFAKDNVA,ENNTREA,QQYDRLPLS,En_Gen,2.45,2/6
TISNSFMMENQFKNSVA,QASTRES,QCYDRLPLS,En_HC,0.85,6/6
KISQMQRVGQTHGNSIA,EEATRAN,QQYHRLPLS,En_Gen,0.16,6/6
KLTNVTGTEKVLGNNVA,EMETREV,QQYNRLPLS,En_Gen,1.24,5/6
KSSLSVLNESRNKNSVA,KASIRER,QQYARLPLS,Ctrl,1.28,6/6
KMSQSVPYESRNKNSVA,NASQRES,QQYHRLPLS,GP_Gen,-0.34,6/6
QSSQSTLYESRNKNSVA,WASTRES,QQYHRLPLS,Ctrl,1.98,4/6
KLLQSVQYGSRALNSVA,QMETRED,QQYHRLPLS,En_HC,0.66,6/6
KSSQSVLYESWTKNSVA,DASTRES,QQYHRLPLS,Ctrl,0.86,6/6
KFSQSVGYESRNKNSVA,NAQTRME,QQYHRLPLS,GP_Gibbs,0.85,6/6
KSSWSGLYESRNKNSVA,EASTRES,QQYHRLPLS,GP_HC,-0.17,6/6
HSSQEVLEESRNKNSVA,WASTRFS,QQYHRLPLS,Ctrl,1.84,6/6
QLLMATMQGEYNRNSVA,HAETRED,QSYHRLPLS,En_HC,0.81,6/6
KQSQSVLYESRNKNSVA,MASTRES,QQYQRLPLS,GP_HC,0.69,6/6
VLSDTAVNQYDEADNIA,DKTETSV,QQYARLPLS,En_Gibbs,1.29,6/6

The last 3 entries again:

CDR-L1,CDR-L2,CDR-L3,group,"mean, log10 nM",seen in
QLLMATMQGEYNRNSVA,HAETRED,QSYHRLPLS,En_HC,0.81,6/6
KQSQSVLYESRNKNSVA,MASTRES,QQYQRLPLS,GP_HC,0.69,6/6
VLSDTAVNQYDEADNIA,DKTETSV,QQYARLPLS,En_Gibbs,1.29,6/6